Test results reported in US10682430B2, “Alpha-emitting complexes” (BAYER AS, priority 2010, dated 2020).

Experiments:
SK-OV-3 cells [1] = assay: Determining the immunoreactive fraction (quality control of labeled conjugate); conditions: fixed SK-OV-3 cells, 37° C., 2.5 hours; IRF = total binding − unspecific binding
SK-OV-3 xenografts = conditions: 15 kBq i.v. (2700 Bq/μg)
SK-OV-3 cells [2] = assay: Assessment of binding over time (^227Th-activity on cell pellets over 7 days); type: cell-based
SK-OV-3 cells [3] = assay: Cytotoxicity: luminescence (ATP, Cell Titer-Glo) measurement of metabolic activity; type: cell-based; conditions: 20 kBq/mL (10166 Bq/μg), 1 hour exposure
[4] = 700 kBq added, after 1 hour incubation

Row | Substance | Average IRF (SK-OV-3 cells [1]) [%] | uptake in skull and femur (SK-OV-3 xenografts; 24 h) | concentration in blood (SK-OV-3 xenografts; 4 days) | ^227Th-activity on the cell pellet (SK-OV-3 cells [2]; [4]) [kBq] | ^227Th-activity on the cell pellet as share of added activity (SK-OV-3 cells [2]; [4]) [%] | binding/retention on SK-OV-3 cells (conclusion) (SK-OV-3 cells [2]; over 7 days) | cell state at day nine (SK-OV-3 cells [3])
1 | Batch B: batch of ^227Th-ALG-DD-NCS-trastuzumab, specific activity 2 700 Bq/μg, used in Example 10 | 60 | – | – | – | – | – | –
2 | ^227Th-ALG-DD-NCS-trastuzumab: ALG-DD-NCS chelator conjugated to monoclonal antibody trastuzumab and labeled with thorium-227 | – | 2.8-3.2% | around 1 % ID/g | 77 | 11 | efficiently retained | almost all cells were dead
